26 molecules from paper PMC7723054 can be followed below.

The other results are listed elsewhere or left out.

Common to all, as to experiment: FOREST: bead pull-down of RNA structure library v1, barcode microarray; U1A/LIN28A: 20 mM HEPES pH 7.5, 80 mM KCl, 20 mM NaCl, 10% glycerol, 2 mM DTT, 0.1 ug/uL BSA, 4 C; BG4/CIRBP/DHX36: 10 mM Tris-HCl pH 7.5, 100 mM KCl (or LiCl),; high values mean tight binding
For assay [1], the target named is T1, LIN28A (human?, UniProt Q9H9Z2 1-209).
T1 sequence: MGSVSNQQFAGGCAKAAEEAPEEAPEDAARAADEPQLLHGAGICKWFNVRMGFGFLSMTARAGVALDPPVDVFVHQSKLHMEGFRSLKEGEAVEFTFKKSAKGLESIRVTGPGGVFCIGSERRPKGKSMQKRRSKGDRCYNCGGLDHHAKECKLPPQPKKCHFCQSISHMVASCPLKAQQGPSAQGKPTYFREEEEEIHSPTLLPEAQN

The target of assay [2] is T2, CIRBP (Homo sapiens, UniProt Q14011 1-172).
T2 sequence: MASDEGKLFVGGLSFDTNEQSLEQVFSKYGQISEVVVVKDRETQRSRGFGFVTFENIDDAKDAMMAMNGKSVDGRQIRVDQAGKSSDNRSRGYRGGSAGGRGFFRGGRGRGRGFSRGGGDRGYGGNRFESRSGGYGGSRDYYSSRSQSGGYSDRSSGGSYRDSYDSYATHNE

Assay [3] deals with T3, DHX36 (Homo sapiens, UniProt Q9H2U1 1-1008).
T3 sequence: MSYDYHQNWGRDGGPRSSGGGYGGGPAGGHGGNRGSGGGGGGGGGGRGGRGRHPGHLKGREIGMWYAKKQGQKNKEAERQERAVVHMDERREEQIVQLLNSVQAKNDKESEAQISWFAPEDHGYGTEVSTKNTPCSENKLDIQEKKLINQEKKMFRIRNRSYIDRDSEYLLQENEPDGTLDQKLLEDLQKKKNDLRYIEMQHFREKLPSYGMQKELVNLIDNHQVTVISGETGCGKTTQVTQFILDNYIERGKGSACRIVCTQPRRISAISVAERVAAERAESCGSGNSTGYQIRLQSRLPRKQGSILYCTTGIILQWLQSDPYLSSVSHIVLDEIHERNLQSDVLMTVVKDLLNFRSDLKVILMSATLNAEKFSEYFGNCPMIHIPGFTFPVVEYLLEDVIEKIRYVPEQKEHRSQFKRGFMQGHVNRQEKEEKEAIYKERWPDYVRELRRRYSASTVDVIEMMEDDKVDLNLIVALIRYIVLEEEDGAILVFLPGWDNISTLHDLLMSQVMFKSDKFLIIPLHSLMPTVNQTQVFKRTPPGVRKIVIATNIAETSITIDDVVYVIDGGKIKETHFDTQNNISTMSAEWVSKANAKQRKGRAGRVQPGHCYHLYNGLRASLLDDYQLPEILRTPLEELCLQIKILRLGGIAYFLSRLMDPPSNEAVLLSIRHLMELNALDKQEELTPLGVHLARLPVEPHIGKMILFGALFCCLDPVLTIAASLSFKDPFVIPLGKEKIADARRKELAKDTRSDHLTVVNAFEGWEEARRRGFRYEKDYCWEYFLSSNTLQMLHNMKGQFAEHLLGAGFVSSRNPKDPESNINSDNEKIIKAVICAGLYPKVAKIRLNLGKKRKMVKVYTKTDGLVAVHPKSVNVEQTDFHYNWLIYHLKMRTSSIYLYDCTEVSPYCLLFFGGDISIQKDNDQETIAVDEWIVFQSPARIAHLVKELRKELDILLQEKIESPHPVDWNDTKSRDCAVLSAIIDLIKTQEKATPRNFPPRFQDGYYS

B1: hsa-mir-133b (structured_RNA)
RNA: GGGAACCCCGAGCGGUACAUUCAUCGAAGGUGUACGAAGUUUCAGCCAAGUCCGUCUUCCUGAGAGGUUUGGCUGAAGCUUCGUGCAC
Regarding B1, the binding signal in assay [1] stood at 0.761 z-score; in assay [2], 1.56 z-score; in assay [3], 0.336 z-score.

B2: hsa-mir-1291 (structured_RNA)
RNA: GGGAAUUCCGUUGAUGUAGGCGCCAGCUGGUGUACGAAGUUUCAGCCAGUUGUACUGUGGCUGGCUGAAGCUUCGUGCAC
Regarding B2, the binding signal was 0.778 z-score in assay [1], 0.216 z-score in assay [2] and -1.03 z-score in assay [3].

B3: NEAT1_ParasoR_ID46 (structured_RNA)
RNA: GGGAAAAGGUCGAGCGGGCUACUAGACCGGUGUACGAAGUUUCAGCACAGACGCUCUGUGCUGAAGCUUCGUGCAC
For the molecule B3, the values for the binding signal in assay [1], in assay [2] and in assay [3] were 0.798 z-score, 0.519 z-score and 1.1 z-score, respectively.

B4: hsa-mir-888 (structured_RNA)
RNA: GGGAAUCACGAUCCUGAGACGCUAUGGGGGUGUACGAAGUUUCAGCAGUCACUUAGAUUACAUGUGACUGCUGAAGCUUCGUGCAC
As for B4, the binding signal in assay [1] was 0.804 z-score; in assay [2] it was -1.66 z-score; in assay [3], 0.444 z-score.

B5: hsa-mir-5003 (structured_RNA)
RNA: GGGAAAAGGGUUUGCGCUACAAGUGGACGGUGUACGAAGUUUCAGCGGUAGAGAUGAUUUUUCCUACUGCUGAAGCUUCGUGCAC
Regarding B5, the values for the binding signal in assay [1], in assay [2] and in assay [3] were 0.805 z-score, 0.0925 z-score and -0.135 z-score, respectively.

B6: hsa-mir-652 (structured_RNA)
RNA: GGGAACGCGGACCAAUAGACAAUUAAGGGGUGUACGAAGUUUCAGCCAUUCACAUAGACUAUAAUUGAAUGGCUGAAGCUUCGUGCAC
Take B6: the binding signal is 0.789 z-score in assay [1], 0.836 z-score in assay [2] and 0.546 z-score in assay [3].

B7: hsa-mir-6867 (structured_RNA)
RNA: GGGAAGCCGUUAAGACGUCCAUGUGUGCGGUGUACGAAGUUUCAGCGAAGGGAAGCUGGGAACCUGACUGCCUCGCUGAAGCUUCGUGCAC
With B7, the binding signal in assay [1] is 0.72 z-score; in assay [2], 0.675 z-score; in assay [3] it was -0.358 z-score.

B8: hsa-mir-661 (structured_RNA)
RNA: GGGAAAAUCGGAGGGCUUUUGCACAAUGGGUGUACGAAGUUUCAGCGGUUUCGGGCUGCCGCUGAAGCUUCGUGCAC
On to B8, for which the binding signal was 0.705 z-score in assay [1], 0.997 z-score in assay [2] and 0.765 z-score in assay [3].

B9: hsa-mir-1231 (structured_RNA)
RNA: GGGAAACCUGCUUGUGGGAAGCUAAUGAGGUGUACGAAGUUUCAGCCUGCAGGAAAGGGAAGACCAAGGCUUGCUGUCUGUCCAGUCUGCCACCCUACCCUGUGCUGAAGCUUCGUGCAC
As to B9, the binding signal in assay [1] stood at 0.777 z-score; in assay [2], 0.123 z-score; in assay [3], 0.61 z-score.

B10: hsa-mir-190a (structured_RNA)
RNA: GGGAAGGUUUGUUAAAGCAGGUUGCGAAGGUGUACGAAGUUUCAGCUAGGUUGUUAUUUAAUCCAACUGCUGAAGCUUCGUGCAC
For B10, the binding signal was 0.811 z-score in assay [1], 1.49 z-score in assay [2] and 0.834 z-score in assay [3].

B11: hsa-mir-4639 (structured_RNA)
RNA: GGGAAGAAACGUUCAGUCAAUGAUAGCCGGUGUACGAAGUUUCAGCUUGAUGUCAGGUUAUCCCCAAGCAUAACCUCACGCUGAAGCUUCGUGCAC
Take B11: the binding signal in assay [1] was 0.704 z-score; in assay [2], 0.176 z-score; in assay [3] it was 0.108 z-score.

B12: hsa-mir-34c (structured_RNA)
RNA: GGGAAGGAAUUUAGAUCGUCACGCGGAGGGUGUACGAAGUUUCAGCGAUUGCUAAUAGUACCAAUCGCUGAAGCUUCGUGCAC
As to B12, the binding signal in assay [1] was 0.72 z-score; in assay [2] it was 0.731 z-score; in assay [3], 0.583 z-score.

B13: hsa-mir-328 (structured_RNA)
RNA: GGGAAUUAAGACGGGCGCAGCGGACUUAGGUGUACGAAGUUUCAGCUCAGGGAGAAAGUGCAUACAGCCCCUGGCUGAAGCUUCGUGCAC
As to B13, the figures for the binding signal in assay [1], in assay [2] and in assay [3] were 0.764 z-score, 0.00528 z-score and 2.22 z-score, respectively.

B14: hsa-mir-618 (structured_RNA)
RNA: GGGAAGGAGUCAGUAGGACUAGCCAUCUGGUGUACGAAGUUUCAGCGAGUGUAAUUACGUACAUGCAGUAGCUCGCUGAAGCUUCGUGCAC
On to B14, for which the binding signal came to 0.755 z-score in assay [1], 1.39 z-score in assay [2] and 1.24 z-score in assay [3].

B15: hsa-mir-3116-1 (structured_RNA)
RNA: GGGAGGGGAAGCGUGUCUUCGAUCCUUUGGUGUACGAAGUUUCAGCGGCACUGGGUAUCGUAGGUGCCGCUGAAGCUUCGUGCAC
Take B15: the binding signal was 0.713 z-score in assay [1], -0.752 z-score in assay [2] and 1.34 z-score in assay [3].

B16: hsa-mir-548a-2 (structured_RNA)
RNA: GGGAAAUCAGGUAGUGAUGGCCUUCACCGGUGUACGAAGUUUCAGCUUUGCCGUUAAAAGUAAUGGCAGCUGAAGCUUCGUGCAC
Regarding B16, the results for the binding signal in assay [1], in assay [2] and in assay [3] were 0.739 z-score, 0.0436 z-score and -0.869 z-score, respectively.

B17: hsa-mir-1275 (structured_RNA)
RNA: GGGAAGAGGUAUUUCCAAGAGCACGGCGGGUGUACGAAGUUUCAGCUGUCUUGUGUCUGUAAGUAUGCUGAAGCUUCGUGCAC
In the case of B17, the binding signal in assay [1] was 0.764 z-score; in assay [2], 0.542 z-score; in assay [3] it was -1.07 z-score.

B18: hsa-mir-143 (structured_RNA)
RNA: GGGAGUCCGAAAUGGGAUGGAUAGAAAAGGUGUACGAAGUUUCAGCCUCUGGUCAGUUGGGAGUCUGAGGCUGAAGCUUCGUGCAC
Take B18: the results for the binding signal in assay [1], in assay [2] and in assay [3] were 0.797 z-score, -1.05 z-score and -0.405 z-score, respectively.

B19: hsa-mir-4319 (structured_RNA)
RNA: GGGAACGCCGUGAGGACAGCUAUCUUUAGGUGUACGAAGUUUCAGCCCACUGGGAAUGCUCCCUGAGGACGUUAUAUGAGUGGCUGAAGCUUCGUGCAC
On to B19, for which the binding signal in assay [1] is 0.703 z-score; in assay [2], -0.101 z-score; in assay [3] it was -0.924 z-score.

B20: NEAT1_ParasoR_ID31 (structured_RNA)
RNA: GGGAAUGGGAUAUAACCACACAAAGGAUGGUGUACGAAGUUUCAGCAACAUGUCAUAUUGUACGUGUUGCUGAAGCUUCGUGCAC
Take B20: the binding signal was 0.71 z-score in assay [1], 1.33 z-score in assay [2] and -0.243 z-score in assay [3].

B21: hsa-mir-18a (structured_RNA)
RNA: GGGAAAGCCGGGGAGUUAAAUCUCAAAGGGUGUACGAAGUUUCAGCAGAUAGUGAAGUAGAUUAGCAUCUACUGCUGAAGCUUCGUGCAC
For the molecule B21, the binding signal in assay [1] is 0.809 z-score; in assay [2] it was 0.982 z-score; in assay [3], -0.287 z-score.

B22: hsa-mir-494 (structured_RNA)
RNA: GGGAACAUGCGAGCGUAAACGAUUAGAUGGUGUACGAAGUUUCAGCUUCUCUUUAUUUAUGAUGAAGCUGAAGCUUCGUGCAC
Take B22: the binding signal in assay [1] is 0.738 z-score; in assay [2], 1.2 z-score; in assay [3] it was -0.454 z-score.

B23: hsa-mir-6132 (structured_RNA)
RNA: GGGAAUAUCCGGUGCUCACCGCUUCCUCGGUGUACGAAGUUUCAGCUGCAGUAUCCGCUGUUGCUGCUGCUGAAGCUUCGUGCAC
On to B23, for which the binding signal worked out at 0.795 z-score in assay [1], 1.06 z-score in assay [2] and 0.472 z-score in assay [3].

B24: hsa-mir-2861 (structured_RNA)
RNA: GGGAAAGGACGGGGUCAACAAAUGGUGUGGUGUACGAAGUUUCAGCCCUCUCGGGAACUACAAGUCCCAGGGGGGCUGAAGCUUCGUGCAC
In the case of B24, the binding signal in assay [1] was determined as 0.766 z-score; in assay [2], 0.867 z-score; in assay [3] it was 0.205 z-score.

B25: hsa-mir-1284 (structured_RNA)
RNA: GGGAACGCAACAGGGAUCUAAGAAUAGUGGUGUACGAAGUUUCAGCUUUCUUAAAUUUUAUAUAUUGGAAGCUGAAGCUUCGUGCAC
Consider B25, for which the binding signal was found to be 0.78 z-score in assay [1], 2.28 z-score in assay [2] and 0.118 z-score in assay [3].

B26: hsa-mir-4500 (structured_RNA)
RNA: GGGAUACCAAUCCGAUGUUUACAAGGCCGGUGUACGAAGUUUCAGCAGAAGCUAAAGUGUAGAUCAAACGCAUAAUGGCUGAGCUGAAGCUUCGUGCAC
Regarding B26, the values for the binding signal in assay [1], in assay [2] and in assay [3] were 0.775 z-score, -0.0598 z-score and -0.306 z-score, respectively.
